Laboratory results taken from article PMC8558867, “Development of BromoTag: A “Bump-and-Hole”–PROTAC System to Induce Potent, Rapid, and Selective Degradation of Tagged Target Proteins” (Journal of Medicinal Chemistry, 2021).

What was measured:
BromoTag-Brd2 = assay: Dose–response degradation assay (western blot, 6 h) in heterozygous BromoTag-Brd2 HEK293 cells; format: cell-based, human; settings: for pDmax (%) (Ab: Brd4BD2 L387A) / pDmax (%) (Ab:Brd2): supplementary CSV; for Dmax (%) (Ab: Brd^4BD2 L387A) / Dmax (%) (Ab: BromoTag-Brd2): 6 h, eight-point 10 μM to 1 nM
22RV1 cells = assay: CellTiter-Glo 2.0 cell viability assay, 22RV1; format: cell-based; settings: Homo sapiens; 22RV1, 48 Hours, mean ±S.E.M, N = 2; read-out: pEC50 (cell viability) (converted)
[1] = BromoTagged-Brd2, 6 h, diastereomeric mixtures

| SMILES | Dmax (%) (Ab: Brd2) (BromoTag-Brd2; [1]) | Dmax (%) (Ab: Brd4^BD2 L387A) (BromoTag-Brd2; [1]) | pDmax (%) (Ab: Brd4BD2 L387A) (BromoTag-Brd2) | pDmax (%) (Ab:Brd2) (BromoTag-Brd2) | Dmax (%) (Ab: Brd^4BD2 L387A) (BromoTag-Brd2) | Dmax (%) (Ab: BromoTag-Brd2) (BromoTag-Brd2) | EC50 (22RV1 cells) [nM] |
| --- | --- | --- | --- | --- | --- | --- | --- |
| CCC(C(=O)OCCOCCOCCOCC(=O)N[C@H](C(=O)N1C[C@H](O)C[C@H]1C(=O)NCc1ccc(-c2scnc2C)cc1)C(C)(C)C)C1N=C(c2ccc(Cl)cc2)c2c(sc(C)c2C)-n2c(C)nnc21 (relative stereo) [ET-OMZ1 (23), (S)-13-((2S,4R)-4-Hydroxy-2-((4-(4-methylthiazol-5-yl)benzyl)carbamoyl)pyrrolidine-1-carbonyl)-14,14-dimethyl-11-oxo-3,6,9-trioxa-12-azapentadecyl (R*)-2-((S*)-4-(4-chlorophenyl)-2,3,9-trimethyl-6H-thieno[3,2-f][1,2,4]triazolo[4,3-a][1,4]diazepin-6-yl)butanoate] | 96 | 90 | 90 | 96 |  |  |  |
| CC[C@@H](C(=O)OCCOCCOCCOCC(=O)N[C@H](C(=O)N1C[C@H](O)C[C@H]1C(=O)NCc1ccc(-c2scnc2C)cc1)C(C)(C)C)[C@@H]1N=C(c2ccc(Cl)cc2)c2c(sc(C)c2C)-n2c(C)nnc21 [AGB1 (46), (S)-13-((2S,4R)-4-Hydroxy-2-((4-(4-methylthiazol-5-yl)benzyl)carbamoyl)pyrrolidine-1-carbonyl)-14,14-dimethyl-11-oxo-3,6,9-trioxa-12-azapentadecyl (R)-2-((S)-4-(4-chlorophenyl)-2,3,9-trimethyl-6H-thieno[3,2-f][1,2,4]triazolo[4,3-a][1,4]diazepin-6-yl)butanoate] |  |  | 99 | 97 | 99 | 97 |  |
| CC[C@@H](C(=O)NCCOCCOCCOCC(=O)N[C@H](C(=O)N1C[C@H](O)C[C@H]1C(=O)NCc1ccc(-c2scnc2C)cc1)C(C)(C)C)[C@@H]1N=C(c2ccc(Cl)cc2)c2c(sc(C)c2C)-n2c(C)nnc21 [AGB3 (48), (2S,4R)-1-((2S,17R)-2-(tert-Butyl)-17-((S)-4-(4-chlorophenyl)-2,3,9-trimethyl-6H-thieno[3,2-f][1,2,4]triazolo[4,3-a][1,4]diazepin-6-yl)-4,16-dioxo-6,9,12-trioxa-3,15-diazanonadecanoyl)-4-hydroxy-N-(4-(4-methylthiazol-5-yl)benzyl)pyrrolidine-2-carboxamide] |  |  | 92 | 96 | 92 | 96 |  |
| CN[C@@H]1C[C@H]2O[C@@](C)([C@@H]1OC)n1c3ccccc3c3c4c(c5c6ccccc6n2c5c31)C(=O)NC4 [Staurosporine] |  |  |  |  |  |  | 251 |
